{"sequences": {"note": "Chains of the proteins cited; added tags and fusions are not shown.", "UniProt P15559, whole entry": "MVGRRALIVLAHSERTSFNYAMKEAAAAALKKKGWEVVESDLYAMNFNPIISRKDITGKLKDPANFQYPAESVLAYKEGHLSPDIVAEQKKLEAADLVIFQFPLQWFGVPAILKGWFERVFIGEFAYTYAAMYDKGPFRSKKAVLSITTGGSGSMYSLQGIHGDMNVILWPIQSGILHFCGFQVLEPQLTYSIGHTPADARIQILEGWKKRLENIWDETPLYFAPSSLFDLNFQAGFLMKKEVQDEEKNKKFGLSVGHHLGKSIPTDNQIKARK"}, "source": "patent US10285986B2", "about": "“Compounds and anti-tumor NQO1 substrates” (The Board of Trustees of the University of Illinois, priority 2011, dated 2019)", "key": {"NQO1": {"molecular_target": "NQO1 (Homo sapiens, UniProt P15559)", "assay": "NQO1 enzymatic measurements in vitro", "protocol": "As further evidence that the activity of these DNQ derivatives is dependent on their ability to be reduced by NQO1, full enzymatic measurements in vitro were performed. We found a strong correlation between catalytic efficiency of substrates in vitro and their cell culture toxicity. […] This provides strong evidence that the cytotoxicity of DNQ and its derivatives are dependent primarily upon the activity of NQO1 within the cell."}, "[1]": {"assay": "Solubility in organic solvents", "settings": "Table 1", "protocol": "The solubility of DNQ derivatives in organic solvents was determined by measuring the amount of a given solvent required to dissolve a known amount of compound. Solvent was added to the compound in 50 μL aliquots and the slurry was sonicated. This process was repeated until all the solid had dissolved, leaving a clear red solution. The endpoint was generally very well defined. Solubility was assessed in DMSO, dichloromethane, and 33% methanol in dichloromethane (FIGS. 9, 10, and 11, respectively)."}, "MCF-7 cells": {"tested_on": "MCF-7 cells", "assay": "Cytotoxicity to MCF-7 cells with or without 25 μM dicoumarol (sulforhodamine B assay)", "settings": "Table 1", "protocol": "The NQO1-dependent cytotoxicity of the first set of derivatives was determined in MCF-7 cells which express high levels of NQO1. Cells were exposed to DNQ for 2 hours in the presence or absence of 25 μM DIC. The media was then removed and cells were washed once with media then fresh media was added and the cells were incubated for 72 hours. Cell death was assessed using the sulforhodamine B assay previously described. […] Dodecyl derivative 4-10 was insoluble in DMSO (<0.1 mM) and could not be assessed in this assay. […] As was the case with 4-10, compound 4-13 was insoluble in DMSO. Substitution off the nitrogen appeared well tolerated (4-14 and 4-15).\nThe DNQ derivatives synthesized were assayed for their toxicity to MCF-7 cells with or without DIC. The data from these experiments is organized in Table 4.2. […] This tolerance of sterically-demanding substituents corresponds with a flexible and promiscuous NQO1 active site. The poor activity of hydroxyl derivative 4-41 may be a result of either poor binding with the largely hydrophobic NQO1 active site or with an excessively strong substrate-enzyme interaction because of hydrogen bonding."}}, "data": [{"smiles": "CCCc1cc(=O)[nH]c2c1C(=O)c1c(C)cc(=O)n(C)c1C2=O", "note": "[Compound 4-12]", "values": [{"measurement": "NQO1 Vmax", "setting": "NQO1", "value": "1540 ± 80", "unit": "μmol/min/μmol protein"}, {"measurement": "NQO1 Initial Velocity @ 1 μM", "setting": "NQO1; 1 μM substrate", "value": "280 ± 40"}, {"measurement": "Catalytic Efficiency", "setting": "NQO1; Table 1", "value": "5.9e+06", "unit": "M⁻¹ s⁻¹"}, {"measurement": "CH2Cl2:MeOH 2:1 solubility", "setting": "[1]; CH2Cl2:MeOH 2:1", "value": 10, "unit": "mM"}, {"measurement": "CH2Cl2 solubility", "setting": "[1]; CH2Cl2", "value": 2, "unit": "mM"}, {"measurement": "Fold Protection of MCF7 cells w/ 25 μM dicoumarol", "setting": "MCF-7 cells", "value": 1.6}]}]}
